Experimental data reported in patent US20150260731A1.

What was measured:
anti-ADDL antibody 19.3 [1] = test: competitive ELISA: Aβ1-40 monomer titrated in solution to remove 19.3 (2 nM) from a plate coated with Aβ oligomers (50 pmol/well) (FIG. 5B)
anti-ADDL antibody 19.3 [2] = test: competitive ELISA: Aβ oligomers titrated in solution to compete for 19.3 (4 nM) on a plate coated with Aβ1-40 monomer (100 pmol/well) (FIG. 5B)

Aβ1-40 monomer (peptide)
EC50 (anti-ADDL antibody 19.3 [1]): 5.5 µM

amyloid β-derived diffusible ligands (ADDLs), oligomers of Aβ1-42 (peptide)
EC50 (anti-ADDL antibody 19.3 [2]): 0.0087 µM
